Experimental data as given in patent US8497240B2 (priority 2006, dated 2013).
“And” between values parts separate entries of the source, which are not always exact repeats. Identical values can stand only once. Like-named read-outs stand apart in the source and are kept apart here.

Assays:
[1] = type: in vivo, NIH/Swiss mice
[2] = type: in vivo, NIH/Swiss mice; conditions: AUC240
[3] = target: T1, human GIP receptor (Homo sapiens, UniProt P48546); assay: biochemical; type: binding
T1 construct: expressed in transfected cells; host or cells: HEK293 (HEK-GIPR), membranes
T1 sequence (P48546 22-466): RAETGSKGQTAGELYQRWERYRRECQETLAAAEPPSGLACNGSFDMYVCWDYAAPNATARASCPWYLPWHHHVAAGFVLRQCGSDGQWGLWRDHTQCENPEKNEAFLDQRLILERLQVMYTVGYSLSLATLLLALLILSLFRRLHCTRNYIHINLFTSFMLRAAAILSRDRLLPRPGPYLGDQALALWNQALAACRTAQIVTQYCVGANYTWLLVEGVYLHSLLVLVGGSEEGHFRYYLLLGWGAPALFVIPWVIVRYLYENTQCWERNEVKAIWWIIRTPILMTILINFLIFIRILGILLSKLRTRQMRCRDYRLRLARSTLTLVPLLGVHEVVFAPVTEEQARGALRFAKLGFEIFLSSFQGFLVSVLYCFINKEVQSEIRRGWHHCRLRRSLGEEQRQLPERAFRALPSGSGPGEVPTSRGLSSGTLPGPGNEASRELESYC

Row | Structure (SMILES) | OGTT/GL (%) ([1]; 350 nmol/kg) | OGTT/GL (%) ([1]; 30 nmol/kg) | Basal Gluc. Low. 80 nmol/Kg [2] | inhibition at 0.01 µM ([3]; read-out: (% Inh 10 nm, GIP-LF Assay)) | inhibition at 0.01 µM ([3]; read-out: GIP RBA (% Inh 10 nM))
1 | CC[C@H](C)[C@H](NC(=O)[C@H](CO)NC(=O)[C@H](Cc1ccc(O)cc1)NC(=O)[C@H](CC(=O)O)NC(=O)[C@H](CO)NC(=O)[C@@H](NC(=O)[C@H](Cc1ccccc1)NC(=O)[C@@H](NC(=O)CNC(=O)[C@H](CCC(=O)O)NC(=O)[C@@H](C)NC(=O)[C@@H](N)Cc1ccc(O)cc1)[C@@H](C)O)[C@@H](C)CC)C(=O)N[C@@H](C)C(=O)N[C@@H](CC(C)C)C(=O)N[C@@H](CC(=O)O)C(=O)N[C@@H](CCCCN)C(=O)N[C@H](C(=O)N[C@@H](CCCNC(=N)N)C(=O)N[C@@H](CCC(N)=O)C(=O)N[C@@H](CCC(N)=O)C(=O)N[C@@H](CCC(=O)O)C(=O)N[C@@H](Cc1ccccc1)C(=O)N[C@H](C(=O)N[C@@H](CC(N)=O)C(=O)N[C@@H](Cc1c[nH]c2ccccc12)C(=O)N[C@@H](CC(C)C)C(=O)N[C@@H](CC(C)C)C(=O)N[C@@H](C)C(=O)N[C@@H](CCC(N)=O)C(=O)N[C@@H](CCCCN)C(=O)NCCC(=O)N1CCC[C@H]1C(=O)N[C@@H](CO)C(=O)N[C@@H](CO)C(=O)NCC(=O)N[C@@H](C)C(=O)N1CCC[C@H]1C(=O)N1CCC[C@H]1C(=O)N1CCC[C@H]1C(=O)N[C@@H](CO)C(N)=O)C(C)C)[C@@H](C)CC [Compound 0601GIP4290] | −17% | – | – | – | –
2 | CC[C@H](C)[C@H](N)C(=O)N[C@@H](Cc1ccc(O)cc1)C(=O)N[C@H](C)C(=O)N[C@@H](CCC(=O)O)C(=O)NCC(=O)N[C@H](C(=O)N[C@@H](Cc1ccccc1)C(=O)N[C@H](C(=O)N[C@@H](CO)C(=O)N[C@@H](CC(=O)O)C(=O)N[C@@H](Cc1ccc(O)cc1)C(=O)N[C@@H](CO)C(=O)N[C@H](C(=O)N[C@@H](C)C(=O)N[C@@H](CCSC)C(=O)N[C@@H](CC(=O)O)C(=O)N[C@@H](CCCCN)C(=O)N[C@H](C(=O)N[C@@H](Cc1c[nH]cn1)C(=O)N[C@@H](CCC(N)=O)C(=O)N[C@@H](CCC(N)=O)C(=O)N[C@@H](CC(=O)O)C(=O)N[C@@H](Cc1ccccc1)C(=O)N[C@H](C(=O)N[C@@H](CC(N)=O)C(=O)N[C@@H](Cc1c[nH]c2ccccc12)C(=O)N[C@@H](CC(C)C)C(=O)N[C@@H](CC(C)C)C(=O)N[C@@H](C)C(=O)N[C@@H](CCC(N)=O)C(=O)N[C@@H](CCCCN)C(=O)N1CCC[C@H]1C(=O)N[C@@H](CCCCN)C(=O)N[C@@H](CCCCN)C(=O)N[C@H](C(=O)N[C@@H](CCCNC(=N)N)C(=O)N[C@@H](Cc1ccc(O)cc1)C(=O)N[C@@H](CO)C(N)=O)[C@@H](C)CC)C(C)C)[C@@H](C)CC)[C@@H](C)CC)[C@@H](C)CC)[C@@H](C)O [0601GIP4801] | – | −23, % and −23, 30% | −1%, | 88.8% | 88.8%
3 | CC[C@H](C)[C@H](NC(=O)[C@H](CO)NC(=O)[C@H](Cc1ccc(O)cc1)NC(=O)[C@H](CC(=O)O)NC(=O)[C@H](CO)NC(=O)[C@@H](NC(=O)[C@H](Cc1ccccc1)NC(=O)[C@@H](NC(=O)CNC(=O)[C@H](CCC(=O)O)NC(=O)[C@@H](C)NC(=O)[C@@H](N)Cc1ccc(O)cc1)[C@@H](C)O)[C@@H](C)CC)C(=O)N[C@@H](C)C(=O)N[C@@H](CC(C)C)C(=O)N[C@@H](CC(=O)O)C(=O)N[C@@H](CCCCN)C(=O)N[C@H](C(=O)N[C@@H](CCCNC(=N)N)C(=O)N[C@@H](CCC(N)=O)C(=O)N[C@@H](CCC(N)=O)C(=O)N[C@@H](CCC(=O)O)C(=O)N[C@@H](Cc1ccccc1)C(=O)N[C@H](C(=O)N[C@@H](CC(N)=O)C(=O)N[C@@H](Cc1c[nH]c2ccccc12)C(=O)N[C@@H](CC(C)C)C(=O)N[C@@H](CC(C)C)C(=O)N[C@@H](C)C(=O)N[C@@H](CCC(N)=O)C(=O)N[C@@H](CCCNC(=N)N)C(=O)N1CCC[C@H]1C(=O)N[C@@H](CO)C(=O)N[C@@H](CO)C(=O)NCC(=O)N[C@@H](C)C(=O)N1CCC[C@H]1C(=O)N1CCC[C@H]1C(=O)N1CCC[C@H]1C(=O)N[C@@H](CO)C(N)=O)C(C)C)[C@@H](C)CC [Compound 0601GIP4278] | −12% | – | – | – | –
4 | CC[C@H](C)[C@H](NC(=O)[C@H](CCCCN)NC(=O)[C@H](CC(=O)O)NC(=O)[C@H](CC(C)C)NC(=O)[C@H](C)NC(=O)[C@@H](NC(=O)[C@H](CO)NC(=O)[C@H](Cc1ccc(O)cc1)NC(=O)[C@H](CC(=O)O)NC(=O)[C@H](CO)NC(=O)[C@@H](NC(=O)[C@H](Cc1ccccc1)NC(=O)[C@@H](NC(=O)CNC(=O)[C@H](CCC(=O)O)NC(=O)[C@@H](C)NC(=O)[C@@H](N)Cc1ccc(O)cc1)[C@@H](C)O)[C@@H](C)CC)[C@@H](C)CC)C(=O)N[C@@H](C)C(=O)N[C@@H](CCC(N)=O)C(=O)N[C@@H](CCC(N)=O)C(=O)N[C@@H](CCC(=O)O)C(=O)N[C@@H](Cc1ccccc1)C(=O)N[C@H](C(=O)N[C@@H](CC(N)=O)C(=O)N[C@@H](Cc1c[nH]c2ccccc12)C(=O)N[C@@H](CC(C)C)C(=O)N[C@@H](CC(C)C)C(=O)N[C@@H](C)C(=O)N[C@@H](CCC(N)=O)C(=O)N[C@@H](CCCNC(=N)N)C(=O)N1CCC[C@H]1C(=O)N[C@@H](CO)C(=O)N[C@@H](CO)C(=O)NCC(=O)N[C@@H](C)C(=O)N1CCC[C@H]1C(=O)N1CCC[C@H]1C(=O)N1CCC[C@H]1C(=O)N[C@@H](CO)C(N)=O)C(C)C [Compound 0601GIP4263] | −17% | – | – | – | –
5 | CC[C@H](C)[C@H](NC(=O)[C@H](CO)NC(=O)[C@H](Cc1ccc(O)cc1)NC(=O)[C@H](CC(=O)O)NC(=O)[C@H](CO)NC(=O)[C@@H](NC(=O)[C@H](Cc1ccccc1)NC(=O)[C@@H](NC(=O)CNC(=O)[C@H](CCC(=O)O)NC(=O)[C@@H](C)NC(=O)[C@H](Cc1ccc(O)cc1)NC(=O)[C@@H](N)CC(C)C)[C@@H](C)O)[C@@H](C)CC)C(=O)N[C@@H](C)C(=O)N[C@@H](CCSC)C(=O)N[C@@H](CC(=O)O)C(=O)N[C@@H](CCCCN)C(=O)N[C@H](C(=O)N[C@@H](Cc1c[nH]cn1)C(=O)N[C@@H](CCC(N)=O)C(=O)N[C@@H](CCC(N)=O)C(=O)N[C@@H](CC(=O)O)C(=O)N[C@@H](Cc1ccccc1)C(=O)N[C@H](C(=O)N[C@@H](CC(N)=O)C(=O)N[C@@H](Cc1c[nH]c2ccccc12)C(=O)N[C@@H](CC(C)C)C(=O)N[C@@H](CC(C)C)C(=O)N[C@@H](C)C(=O)N[C@@H](CCC(N)=O)C(=O)N[C@@H](CCCCN)C(=O)N1CCC[C@H]1C(=O)N[C@@H](CCCCN)C(=O)N[C@@H](CCCCN)C(=O)N[C@H](C(=O)N[C@@H](CCCNC(=N)N)C(=O)N[C@@H](Cc1ccc(O)cc1)C(=O)N[C@@H](CO)C(N)=O)[C@@H](C)CC)C(C)C)[C@@H](C)CC [0601GIP4798] | – | −27, % and −27, 30% | −8%, | – | –
